From patent publication US6753345B2, “7-hexanolytaxol and methods for preparing the same” (Hauser, Inc., priority 1998, dated 2004)

Test system: NCI-H322M
Assay: SRB cytotoxicity screening assay (Non-Small Cell Lung Cancer)
Details: PG=−50, 48 hour incubation

For `CCCCCC(=O)O[C@H]1C[C@H]2OC[C@@]2(OC(C)=O)[C@H]2[C@H](OC(=O)c3ccccc3)[C@]3(O)C[C@H](OC(=O)[C@H](O)[C@@H](NC(=O)c4ccccc4)c4ccccc4)C(C)=C([C@@H](OC(C)=O)C(=O)[C@]12C)C3(C)C` [7-hexanoyltaxol], the “Log10 LC50” value was greater than −4.00 molar.
